Values quoted from earlier work in US20230364009A1, “Implantable Medical Device for the Delivery of an Antipsychotic” (Celanese EVA Performance Polymers LLC, priority 2022, published 2023).

Test system: cholinergic muscarinic receptors

SMILES: Cc1nc2n(c(=O)c1CCN1CCC(c3noc4cc(F)ccc34)CC1)CCCC2 [Risperidone, risperidone]
- affinity: no affinity
